Measurements reported in PMC12224939, “Trypstatin as a Novel TMPRSS2 Inhibitor with Broad‐Spectrum Efficacy against Corona and Influenza Viruses” (Advanced Science, 2025).

Chains of the proteins cited; added tags and fusions are not shown. Lines headed by an entry give the natural chain unless they say otherwise; changes in a name come on top. A line that says so, or that is headed by a name, gives the form on record, which may keep a tag or linker. Residues count along the entry.
UniProt O15393, whole entry: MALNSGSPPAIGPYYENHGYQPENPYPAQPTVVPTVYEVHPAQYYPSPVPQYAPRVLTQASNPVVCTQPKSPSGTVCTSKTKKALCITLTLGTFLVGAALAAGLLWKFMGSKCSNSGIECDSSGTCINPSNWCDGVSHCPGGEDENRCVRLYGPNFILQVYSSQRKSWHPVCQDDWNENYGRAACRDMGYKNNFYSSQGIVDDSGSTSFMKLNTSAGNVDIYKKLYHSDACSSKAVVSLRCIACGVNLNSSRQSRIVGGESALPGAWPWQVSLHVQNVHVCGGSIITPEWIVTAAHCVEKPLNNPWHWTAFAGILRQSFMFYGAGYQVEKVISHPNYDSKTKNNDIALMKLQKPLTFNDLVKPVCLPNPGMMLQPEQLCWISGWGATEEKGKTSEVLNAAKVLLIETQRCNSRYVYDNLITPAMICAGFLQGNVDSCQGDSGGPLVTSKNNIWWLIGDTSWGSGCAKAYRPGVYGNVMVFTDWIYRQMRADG
UniProt O60235: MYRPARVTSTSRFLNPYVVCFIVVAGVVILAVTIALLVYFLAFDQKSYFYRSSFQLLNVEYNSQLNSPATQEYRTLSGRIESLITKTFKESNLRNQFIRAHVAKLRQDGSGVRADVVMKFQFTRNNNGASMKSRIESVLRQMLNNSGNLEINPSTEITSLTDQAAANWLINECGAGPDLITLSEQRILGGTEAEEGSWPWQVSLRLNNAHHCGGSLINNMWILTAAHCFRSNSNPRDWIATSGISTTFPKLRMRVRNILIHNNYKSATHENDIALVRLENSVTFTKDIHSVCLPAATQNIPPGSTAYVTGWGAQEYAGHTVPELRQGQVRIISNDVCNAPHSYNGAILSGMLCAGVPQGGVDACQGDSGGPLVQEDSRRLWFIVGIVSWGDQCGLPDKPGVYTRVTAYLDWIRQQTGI
UniProt Q9BYE2, other isoform, or with tags, fused parts or gaps: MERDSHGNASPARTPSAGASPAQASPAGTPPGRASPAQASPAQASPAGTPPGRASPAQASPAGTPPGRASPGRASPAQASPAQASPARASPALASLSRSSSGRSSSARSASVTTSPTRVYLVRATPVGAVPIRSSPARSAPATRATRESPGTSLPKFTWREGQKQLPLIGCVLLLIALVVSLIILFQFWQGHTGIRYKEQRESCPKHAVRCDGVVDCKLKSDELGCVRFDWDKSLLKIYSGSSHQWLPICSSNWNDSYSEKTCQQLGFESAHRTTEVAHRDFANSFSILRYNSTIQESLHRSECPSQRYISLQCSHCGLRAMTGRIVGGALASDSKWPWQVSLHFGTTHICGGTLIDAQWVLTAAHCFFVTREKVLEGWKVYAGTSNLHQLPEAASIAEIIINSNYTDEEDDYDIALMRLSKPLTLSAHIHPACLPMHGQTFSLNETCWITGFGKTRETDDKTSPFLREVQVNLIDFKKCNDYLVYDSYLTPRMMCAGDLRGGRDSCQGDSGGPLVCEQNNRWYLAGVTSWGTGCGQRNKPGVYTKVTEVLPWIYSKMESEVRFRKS
UniProt P05981: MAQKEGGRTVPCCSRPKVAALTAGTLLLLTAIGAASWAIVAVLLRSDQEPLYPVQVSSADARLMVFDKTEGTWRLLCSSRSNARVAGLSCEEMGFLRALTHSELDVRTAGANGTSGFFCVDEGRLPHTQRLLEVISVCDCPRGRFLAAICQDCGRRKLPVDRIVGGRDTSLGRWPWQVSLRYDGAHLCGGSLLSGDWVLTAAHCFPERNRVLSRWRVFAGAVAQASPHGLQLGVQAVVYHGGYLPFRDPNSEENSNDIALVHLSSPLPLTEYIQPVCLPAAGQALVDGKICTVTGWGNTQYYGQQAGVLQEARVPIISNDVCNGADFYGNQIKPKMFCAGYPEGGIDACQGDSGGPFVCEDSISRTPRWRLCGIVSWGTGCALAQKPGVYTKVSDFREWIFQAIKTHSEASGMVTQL
UniProt Q9Y5Y6: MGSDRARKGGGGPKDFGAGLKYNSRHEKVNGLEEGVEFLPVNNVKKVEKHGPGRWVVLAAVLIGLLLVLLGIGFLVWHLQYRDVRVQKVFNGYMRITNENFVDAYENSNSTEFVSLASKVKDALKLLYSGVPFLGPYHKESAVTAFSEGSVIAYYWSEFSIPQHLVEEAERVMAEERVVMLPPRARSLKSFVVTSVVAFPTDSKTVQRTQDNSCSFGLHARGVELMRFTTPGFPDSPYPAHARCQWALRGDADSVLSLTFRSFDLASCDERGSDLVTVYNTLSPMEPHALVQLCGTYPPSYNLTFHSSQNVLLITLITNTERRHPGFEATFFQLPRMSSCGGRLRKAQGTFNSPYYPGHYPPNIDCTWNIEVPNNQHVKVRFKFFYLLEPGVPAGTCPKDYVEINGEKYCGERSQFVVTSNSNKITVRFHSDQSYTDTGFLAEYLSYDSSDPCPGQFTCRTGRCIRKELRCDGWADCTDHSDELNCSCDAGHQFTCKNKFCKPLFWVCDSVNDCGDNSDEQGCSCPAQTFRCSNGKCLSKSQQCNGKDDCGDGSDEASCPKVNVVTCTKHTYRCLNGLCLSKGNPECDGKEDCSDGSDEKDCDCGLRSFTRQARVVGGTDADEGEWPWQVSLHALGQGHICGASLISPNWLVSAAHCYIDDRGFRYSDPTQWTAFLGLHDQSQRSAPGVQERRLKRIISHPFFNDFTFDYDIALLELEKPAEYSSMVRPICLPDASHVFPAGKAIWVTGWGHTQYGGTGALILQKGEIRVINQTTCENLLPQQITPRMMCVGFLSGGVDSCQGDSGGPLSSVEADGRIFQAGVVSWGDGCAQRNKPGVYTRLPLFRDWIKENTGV
UniProt Q9Y337, 23-293: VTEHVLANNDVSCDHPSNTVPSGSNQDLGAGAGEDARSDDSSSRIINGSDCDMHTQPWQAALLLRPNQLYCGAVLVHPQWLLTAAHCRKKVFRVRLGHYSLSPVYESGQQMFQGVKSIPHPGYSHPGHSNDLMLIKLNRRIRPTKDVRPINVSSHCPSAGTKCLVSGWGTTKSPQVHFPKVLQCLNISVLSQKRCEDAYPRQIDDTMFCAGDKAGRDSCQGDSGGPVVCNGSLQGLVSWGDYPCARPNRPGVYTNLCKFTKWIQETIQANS

What was measured:
[1] = target: T1, recombinant human TMPRSS2 (Homo sapiens, UniProt O15393); assay: Recombinant TMPRSS2 activity assay (fluorogenic substrate); type: biochemical; conditions: recombinant enzyme, BOC-Gln-Ala-Arg-AMC substrate
T1 construct: purchased LSBio LS-G57269

TMPRSS11D = target: T2, TMPRSS11D (Homo sapiens, UniProt O60235); assay: Cellular TMPRSS11D activity assay in transfected HEK293T cells; type: cell-based
T2 construct: encoding the respective transmembrane serine protease per well; host or cells: HEK293T
Method: (§1) Twenty thousand HEK293T cells were seeded in a 96‐well flat bottom plate. The next day, cells were transfected with 100 ng of an expression plasmid (Backbone: Twist Bioscience, EF1alpha mammalian expression vector) encoding the respective transmembrane serine protease per well using LT1 transfection reagent (TMPRSS2 human NCBI RefSeq: NP_005647.3; TMPRSS2 Syrian gold hamster NCBI RefSeq: XP_012971683.1; TMPRSS11D NCBI RefSeq: NP_004253.1; TMPRSS13 NCBI RefSeq: NP_001070731.1). In short, plasmid DNA was mixed in a 1:3 ratio with LT1 in a serum‐free medium and incubated for 20 min before the mixture was applied dropwise onto the cells. Sixteen hours post‐transfection, the medium was replaced by a serum‐free medium, and cells were treated with serial dilution of compounds in PBS. After 15 min of incubation at 37 °C, 100 µM of respective protease‐specific substrate (TMPRSS2: Boc‐QAR‐AMC, Bachem # 4017019; TMPRSS11D: Boc‐FSR‐AMC, Bachem # 4012340; TMPRSS13: Pyr‐RTKR‐AMC, Bachem #4018149) was added and incubated for 2 h at 37 °C. Fluorescence intensity was recorded at an excitation wavelength of 380 nm and emission wavelength of 460 nm in a Synergy H1 microplate reader (BioTek) with Gen 5 3.04 software. Values were background corrected for non‐transfected HEK293T‐cells.

TMPRSS13 = target: T3, TMPRSS13 (Homo sapiens, UniProt Q9BYE2); assay: Cellular TMPRSS13 activity assay in transfected HEK293T cells; type: cell-based
T3 construct: encoding the respective transmembrane serine protease per well; host or cells: HEK293T
Method: as §1

TMPRSS1 (Hepsin) = target: T4, TMPRSS1 (Hepsin) (Homo sapiens, UniProt P05981); assay: Recombinant TMPRSS1 activity assay; type: biochemical; conditions: recombinant enzyme
T4 construct: purchased R&D 11416

TMPRSS14 (Matriptase) = target: T5, TMPRSS14 (Matriptase) (Homo sapiens, UniProt Q9Y5Y6); assay: Recombinant TMPRSS14 activity assay; type: biochemical; conditions: recombinant enzyme
T5 construct: purchased 3946
Method: In the next step, 50 µL of 20 µM BOC‐Gln‐Ala‐Arg‐AMC protease substrate (Bachem #4017019) in the case of TMPRSS2 and TMPRSS14 or 50 µL of 150 µM BOC‐Gln‐Arg‐Arg‐AMC (PeptaNova) in the case of TMPRSS1 was added and incubated for 2 h for TMPRSS2, or 5 mins in the case of TMPRSS1/14 at 37 °C. Fluorescence intensity was measured after 2 h at an excitation wavelength of 380 nm and emission wavelength of 460 nm in a SynergyTM H1 microplate reader (BioTek) with Gen5 3.04 software. […] Assays were performed in a total volume of 100 µL in quadruplicate wells of a 96 Nunc well plate (Thermo Scientific #10174221) with a final TMPRSS2 concentration of 20 nM. Initial velocities were measured in 50 s intervals for 15 min with excitation of 360 nm and emission of 460 nm in a SynergyTM H1 microplate reader. K m and V max were calculated from Michaelis–Menten plots using GraphPadPrism. The inhibitory constant K i was calculated from the IC50 values according to the Cheng–Prusoff equation (K i = IC50/(1 + [S]/K m)) for competitive reversible inhibitors.^[ [91] ^]

Kallikrein 5 = target: T6, Kallikrein 5 (Homo sapiens, UniProt Q9Y337); assay: Recombinant kallikrein 5 activity assay; type: biochemical; conditions: recombinant enzyme
T6 construct: purchased R&D 1108
Method: Kallikrein 5 activity was measured by mixing 25 µL of compound with 25 µL of 2 µg mL^−1 of recombinant enzyme (R&D #1108) in assay buffer (100 mM NaH2PO4, pH 8) for 15 min at 37 °C before the addition of 50 µL of BOC‐Val‐Pro‐Arg‐AMC substrate (R&D #ES011). The mixture was incubated for 5 min at 37 °C before fluorescence intensity was measured at an excitation wavelength of 380 nm and emission wavelength of 460 nm in a SynergyTM H1 microplate reader (BioTek) with Gen5 3.04 software.

Aprotinin
IC50 [1]: 50 nM | IC50 (TMPRSS11D): 157 nM | IC50 (TMPRSS13): 81 nM | IC50 (TMPRSS1 (Hepsin)): 21 nM | IC50 (TMPRSS14 (Matriptase)): 22 nM | IC50 (Kallikrein 5): 541 nM
